The values that follow come from article PMC5762315, “Inhibition of polo-like kinase 4 (PLK4): a new therapeutic option for rhabdoid tumors and pediatric medulloblastoma” (Oncotarget, 2017).

Amino acid sequences for entries named in this document (tags omitted). A change or cut given only in a name is not applied to a line headed by its entry.
UniProt P41240: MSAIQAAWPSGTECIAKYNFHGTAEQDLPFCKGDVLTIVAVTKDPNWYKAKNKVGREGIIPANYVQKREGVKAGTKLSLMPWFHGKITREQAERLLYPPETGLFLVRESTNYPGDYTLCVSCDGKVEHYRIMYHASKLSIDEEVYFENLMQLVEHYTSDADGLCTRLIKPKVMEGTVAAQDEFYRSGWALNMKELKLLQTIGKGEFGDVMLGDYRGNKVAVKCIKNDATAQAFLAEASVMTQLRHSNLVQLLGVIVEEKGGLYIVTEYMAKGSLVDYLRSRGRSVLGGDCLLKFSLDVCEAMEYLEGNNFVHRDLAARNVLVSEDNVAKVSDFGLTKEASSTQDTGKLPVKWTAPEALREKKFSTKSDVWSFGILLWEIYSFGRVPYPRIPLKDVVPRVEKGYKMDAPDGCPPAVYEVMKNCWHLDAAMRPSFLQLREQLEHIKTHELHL

pIC50: −log10 of the molar value. Values joined by “and” are separate entries in the source; they are usually repeats but may differ in a detail not shown here. Identical values can stand only once.

Assay [1] concerns the target T1, AURKC (Homo sapiens, UniProt Q9UQB9).
T1 sequence (Q9UQB9 1-309): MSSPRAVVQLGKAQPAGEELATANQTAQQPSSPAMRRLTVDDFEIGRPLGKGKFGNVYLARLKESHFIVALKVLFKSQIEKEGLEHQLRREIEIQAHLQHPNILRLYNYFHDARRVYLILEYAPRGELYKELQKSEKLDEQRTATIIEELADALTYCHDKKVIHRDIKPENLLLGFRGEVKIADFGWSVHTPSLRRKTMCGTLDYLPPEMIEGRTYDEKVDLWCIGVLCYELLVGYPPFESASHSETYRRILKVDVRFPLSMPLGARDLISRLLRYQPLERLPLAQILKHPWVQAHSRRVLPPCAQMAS
The assay can be described thus: Kinase activity screening (SelectScreen), AURKC. The assay is classed as biochemical.

Assay [2] has as its target various kinases (Homo sapiens, UniProt P41240). The assay is classed as biochemical. Particulars: CSK.
Assay [3] has as its system DAOY cells. Particulars: 72 hours of treatment, control 0.1% DMSO.
Assay [4] deals with D283 cells. Particulars: 72 hours of treatment, control 0.1% DMSO.
Assay [5] has as its system DAOY cells. Conditions: 24 hour treatment with 100nM.
In assay [6] the test system is D283 cells. Particulars: 24 hour treatment with 100nM.

Regarding `COc1ccc2c(c1)[C@]1(C[C@H]1c1ccc3c(/C=C/c4ccc(CN5C[C@@H](C)O[C@@H](C)C5)cc4)n[nH]c3c1)C(=O)N2` [CFI-400945], the pIC50 (in general, the IC50 on a negative log10 scale, so that one unit is a factor of ten) in assay [1] is 6.97. For the same molecule, the % Inhibition (usually the relative decrease from the control value, in per cent) in assay [2] is 61% and 63% and 62%. Further, the “proliferation (MTT) vs control” value in assay [3] and in assay [4] was “significantly decreased proliferation” each time. Besides, the “cell migration and invasion vs control” value in assay [5] and in assay [6] was “significant decrease” in each case.
